Data from ChEMBL document CHEMBL1122530, “Probes for narcotic receptor mediated phenomena. 7. Synthesis and pharmacological properties of irreversible ligands specific for mu or delta opiate receptors” (1984).

By UniProt entry, the sequences of proteins in these tests, tags left out.
UniProt P33533, whole entry: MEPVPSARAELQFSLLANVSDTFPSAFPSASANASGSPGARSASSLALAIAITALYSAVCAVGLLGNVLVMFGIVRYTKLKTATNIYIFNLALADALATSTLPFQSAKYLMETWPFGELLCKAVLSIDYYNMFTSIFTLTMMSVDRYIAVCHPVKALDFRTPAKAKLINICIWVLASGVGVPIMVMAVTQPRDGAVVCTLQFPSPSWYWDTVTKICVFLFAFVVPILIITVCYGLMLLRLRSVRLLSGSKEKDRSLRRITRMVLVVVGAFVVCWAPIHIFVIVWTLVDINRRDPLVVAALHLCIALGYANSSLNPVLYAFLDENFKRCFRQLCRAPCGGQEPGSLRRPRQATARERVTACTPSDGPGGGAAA

Key:
[1] = target: T1, Delta-type opioid receptor (Rattus norvegicus, UniProt P33533); assay: The binding affinity was evaluated against [3H]dalamid binding to rat brain membranes (Opioid receptor delta 1)
[2] = target: T1, Delta-type opioid receptor; assay: The binding affinity was evaluated against [3H]dalamid binding to neuroblastoma X glioma hybrid cell NG108-15 (Opioid receptor delta 1)membranes

COC(=O)/C=C/C(=O)N[C@H]1C[C@@]23C=C[C@]1(OC)[C@@H]1Oc4c(O)ccc5c4C12CCN(C)[C@@H]3C5
EC50 [1]: 50 nM | EC50 [2]: 50 nM

CO[C@]12C=C[C@@]3(C[C@@H]1NC(=O)CBr)[C@H]1Cc4ccc(O)c5c4C3(CCN1C)[C@H]2O5
EC50 [1]: 70 nM | EC50 [2]: 50 nM

CO[C@]12C=C[C@@]3(C[C@@H]1N=C=S)[C@H]1Cc4ccc(O)c5c4C3(CCN1C)[C@H]2O5
EC50 [1]: 50 nM | EC50 [2]: 20 nM
